Our source for the Degeneracy values is patent publication US20060094649A1, “Hla-a1,-a2,-a3,-a24,-b7, and-b44 tumor associated antigen peptides and compositions” (priority 2002, published 2006).

In this assay the test system is HLA-B44 supertype molecules. The experiment in a line: HLA-B44 supertype cross-binding. Also on record: species or system human. As to conditions: number of the six B44 supertype alleles bound.

Turning to `CC(C)C[C@H](NC(=O)[C@@H]1CCCN1C(=O)[C@H](CO)NC(=O)[C@H](CCCNC(=N)N)NC(=O)[C@@H]1CCCN1C(=O)[C@H](C)NC(=O)[C@H](CCC(=O)O)NC(=O)[C@H](CCC(=O)O)NC(=O)[C@@H](N)CCC(=O)O)C(=O)O` [compound 498], the Degeneracy was 4.
The result for `CC(C)C[C@H](NC(=O)[C@@H]1CCCN1C(=O)[C@H](CO)NC(=O)[C@H](CCCNC(=N)N)NC(=O)[C@@H]1CCCN1C(=O)[C@H](C)NC(=O)[C@H](CCC(=O)O)NC(=O)[C@@H](N)CCC(=O)O)C(=O)N[C@@H](C)C(=O)O` [compound 499] reads 4; that for `CC(C)C[C@H](NC(=O)[C@@H]1CCCN1C(=O)CNC(=O)[C@H](CCC(=O)O)NC(=O)[C@@H](N)CCCNC(=N)N)C(=O)N1CCC[C@H]1C(=O)N[C@@H](C)C(=O)N[C@@H](C)C(=O)N[C@@H](CCCNC(=N)N)C(=O)N1CCC[C@H]1C(=O)N[C@@H](C)C(=O)O` [compound 500], 4; that for `CC[C@H](C)[C@H](NC(=O)[C@H](CCC(=O)O)NC(=O)[C@@H](NC(=O)[C@H](CC(C)C)NC(=O)[C@H](CO)NC(=O)[C@H](CCCNC(=N)N)NC(=O)[C@H](CC(C)C)NC(=O)[C@H](CCC(N)=O)NC(=O)[C@H](CC(C)C)NC(=O)[C@H](CCC(=O)O)NC(=O)[C@@H](N)CCCNC(=N)N)[C@@H](C)O)C(=O)N[C@@H](CC(C)C)C(=O)O` [compound 501], 3.
The result for `CC(C)C[C@H](NC(=O)[C@H](CO)NC(=O)[C@H](CCC(N)=O)NC(=O)[C@H](CS)NC(=O)[C@H](CC(=O)O)NC(=O)[C@H](CCC(=O)O)NC(=O)[C@H](CO)NC(=O)[C@H](CO)NC(=O)[C@H](CCC(=O)O)NC(=O)CN)C(=O)N[C@H](C(=O)O)[C@@H](C)O` [compound 502] reads 3; that for `CC(C)C[C@H](NC(=O)[C@H](C)NC(=O)[C@@H]1CCCN1C(=O)[C@H](CS)NC(=O)[C@H](Cc1c[nH]cn1)NC(=O)[C@H](CC(C)C)NC(=O)[C@H](CCC(=O)O)NC(=O)[C@@H](N)CS)C(=O)O` [compound 503], 3; that for `CC(C)C[C@H](NC(=O)[C@H](C)NC(=O)[C@@H]1CCCN1C(=O)[C@H](CS)NC(=O)[C@H](Cc1c[nH]cn1)NC(=O)[C@H](CC(C)C)NC(=O)[C@H](CCC(=O)O)NC(=O)[C@@H](N)CS)C(=O)N[C@H](C(=O)O)C(C)C` [compound 504], 3.
Molecule `CC(C)C[C@H](NC(=O)[C@H](C)NC(=O)[C@@H]1CCCN1C(=O)[C@H](CS)NC(=O)[C@H](Cc1c[nH]cn1)NC(=O)[C@H](CC(C)C)NC(=O)[C@H](CCC(=O)O)NC(=O)[C@@H](N)CS)C(=O)N[C@H](C(=O)N[C@H](C(=O)O)[C@@H](C)O)C(C)C` [compound 505] had a Degeneracy of 3.
Next, `CC(C)C[C@H](NC(=O)[C@H](C)NC(=O)[C@@H]1CCCN1C(=O)[C@H](CS)NC(=O)[C@H](Cc1c[nH]cn1)NC(=O)[C@H](CC(C)C)NC(=O)[C@H](CCC(=O)O)NC(=O)[C@@H](N)CS)C(=O)N[C@H](C(=O)N[C@H](C(=O)N[C@@H](Cc1ccc(O)cc1)C(=O)O)[C@@H](C)O)C(C)C` [compound 506]: 3.
In the case of `CSCC[C@H](NC(=O)[C@H](CO)NC(=O)[C@H](CCC(=O)O)NC(=O)[C@@H](N)Cc1ccccc1)C(=O)N1CCC[C@H]1C(=O)N[C@@H](CC(N)=O)C(=O)N1CCC[C@H]1C(=O)N[C@@H](CCC(=O)O)C(=O)NCC(=O)O` [compound 507], the Degeneracy was found to be 3.
Next, `CSCC[C@H](NC(=O)[C@H](CO)NC(=O)[C@H](CCC(=O)O)NC(=O)[C@@H](N)Cc1ccccc1)C(=O)N1CCC[C@H]1C(=O)N[C@@H](CC(N)=O)C(=O)N1CCC[C@H]1C(=O)N[C@@H](CCC(=O)O)C(=O)NCC(=O)N[C@@H](CCCNC(=N)N)C(=O)N[C@@H](Cc1ccc(O)cc1)C(=O)O` [compound 508]: 3; `CC[C@H](C)[C@H](NC(=O)[C@H](CCCCN)NC(=O)[C@H](CCCCN)NC(=O)[C@H](CS)NC(=O)CNC(=O)[C@H](C)NC(=O)[C@H](Cc1ccccc1)NC(=O)[C@H](CCC(=O)O)NC(=O)[C@@H](N)CCC(N)=O)C(=O)O` [compound 509]: 3.
